Values of other authors in patent publication US20110027809A1, “METHOD FOR EVALUATION OF DEGREE OF MALIGNANCY OF TUMOR CELL” (priority 2008, published 2011).

System: breast cancer
Settings: reported; cited from earlier work

trastuzumab [Herceptin]
therapeutic effect against breast cancer: therapeutic effect
